Test system: DU-145 human prostate tumor cells
Test: DU-145 xenograft tumor growth in nude mice
Assay type: in vivo, nude mice (nu/nu)
Conditions: experiment 2; I.P. 8 mg/kg once per week; 46 days after injection
Method: Cage were cleaned and bedding changed once weekly. Irradiated corn cob bedding was used. Animals were observed daily and clinical signs were noted.
Morbidity and mortality were monitored daily.
The dosage level was determined by exact body weight.
Five mice per treatment group were tested.
Animals were treated once per week for 5 weeks.

With `COc1cccc2c1C(=O)c1c(O)c3c(c(O)c1C2=O)C[C@@](O)(C(=O)CO)C[C@@H]3O[C@H]1C[C@H](N)[C@H](O)[C@H](C)O1` [doxorubicin] the average tumor volume was 106 mm^3.
